Target: T1, PAPD5 (Homo sapiens, UniProt Q8NDF8)
T1 construct: made in house
Test: High-throughput luminescence (KinaseGlo) RNA polyadenylation assay, ATP utilization by recombinant PAPD5
Type: biochemical

Sequences of proteins named here, by UniProt entry; tags and fusion partners are left off. Residues count along the entry.
UniProt Q8NDF8, 68-698 isoform Q8NDF8-5: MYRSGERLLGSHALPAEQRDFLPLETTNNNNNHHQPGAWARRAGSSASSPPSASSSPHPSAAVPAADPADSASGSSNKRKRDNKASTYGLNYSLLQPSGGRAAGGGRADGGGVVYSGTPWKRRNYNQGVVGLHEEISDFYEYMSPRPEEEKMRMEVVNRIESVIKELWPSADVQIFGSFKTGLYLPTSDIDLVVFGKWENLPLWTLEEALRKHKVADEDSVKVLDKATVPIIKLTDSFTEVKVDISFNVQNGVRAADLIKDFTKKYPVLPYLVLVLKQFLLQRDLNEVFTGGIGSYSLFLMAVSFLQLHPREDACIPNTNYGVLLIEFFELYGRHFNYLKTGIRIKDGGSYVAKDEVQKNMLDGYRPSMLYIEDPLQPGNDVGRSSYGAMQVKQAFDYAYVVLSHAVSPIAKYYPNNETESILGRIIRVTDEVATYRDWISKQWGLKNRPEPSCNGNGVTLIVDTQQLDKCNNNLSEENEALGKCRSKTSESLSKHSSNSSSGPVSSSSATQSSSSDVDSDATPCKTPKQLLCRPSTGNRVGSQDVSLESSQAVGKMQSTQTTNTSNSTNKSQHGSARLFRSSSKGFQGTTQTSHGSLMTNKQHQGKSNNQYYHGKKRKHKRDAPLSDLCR

SMILES: COc1cc(C(=O)NC2CCN(C)CC2)ccc1Nc1ncc2c(n1)N(C1CCCCC1)CCC(=O)N2C [Entry 64, 4-[(9-cyclohexyl-5-methyl-6-oxo-7,8-dihydropyrimido[4,5-b][1,4]diazepin-2-yl)amino]-3-methoxy-N-(1-methylpiperidin-4-yl)benzamide]
- Fold-change determined at compound concentration 33 μM: 1.099
- Fold-change determined at compound concentration 100 μM: 1.272
